Inhibition data for 110 compounds are collected here from PubChem BioAssay AID651718 (The Scripps Research Institute Molecular Screening Center, 2012).

The entries are a selection whose mix differs from that of the whole data set. The source made the active and inactive calls. Rule as the data show it: active = inhibition above about 4.5%; inactive = the rest.

As usually defined, the inhibition is the relative decrease from the control value, in per cent.

This assay has as its system Methionine sulfoxide reductase A (Bos taurus). Put plainly: inhibition of methionine sulfoxide reductase A – biochemical, absorbance, bovine, HTS, primary screen (AID 651718).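 Also: 0% = vehicle wells with enzyme and 100% = reference inhibitor wells.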 To be noted: purified bovine MsrA, absorbance read-out; at 15.5 µM; active compounds read high.
With `CN(C(=O)Cc1ccccc1)C1CC[C@@]2(CCCO2)C[C@@H]1N1CCCC1` (stereo not given in full), the inhibition was inactive: -0.18%.
As for `CCn1c(=O)n(C2CCN(CC3CCCCCCC3)C[C@H]2CO)c2ccccc21` (stereo not given in full), the figure is inactive: -0.55%; as for `Cc1ccc(NP(=O)(Oc2ccccc2F)Oc2ccccc2F)nc1`, inactive: -1.05%; as for `CN(C(=O)Cc1ccc(Cl)c(Cl)c1)[C@H]1CCCC[C@@H]1N1CCCC1`, inactive: 1.39%.
On to `Cc1cc(SC(NC(=O)c2ccc(F)cc2)C(Cl)(Cl)Cl)ncn1` (stereo not given), for which the inhibition was inactive: 0.48%.
In the case of `CCOP(=O)(Nc1ccccc1)OCC`, the inhibition is inactive: 0.34%.
The figure for `O=P(Nc1nc2ccc(Cl)cc2s1)(c1ccccc1)c1ccccc1` is inactive: -0.26%; for `CN(C)P(=O)(N(C)C)n1c(Nc2ccccc2)nnc1-c1ccccc1` it is inactive: -0.79%.
As for `CCCC1OP(N)(=O)OCC1CC` (stereo not given), the inhibition was inactive: 0.58%.
Consider `CC(=O)Nc1ccc([As](=O)(O)O)cc1`, for which the inhibition was inactive: 1.37%.
The figure for `O=C(O)c1ccccc1[As](=O)(O)O` is active: 81.7%; for `O=C(NC(Sc1ccncn1)C(Cl)(Cl)Cl)c1ccccc1` (stereo not given) it is inactive: 1.32%; for `Oc1ccccc1CNc1ccccn1` it is inactive: 0.77%.
As for `Nc1cc(N)c2nonc2c1[N+](=O)[O-]`, the figure is inactive: 0.57%; as for `CC(C)CC(=O)NC(Sc1ccc(Cl)cc1)C(Cl)(Cl)Cl` (stereo not given), inactive: 0.78%.
For `CN1CCCC(OC(=O)C(c2ccccc2)c2ccccc2)C1` (stereo not given), the inhibition is inactive: -0.3%.
The figure for `Clc1ccc(Cl)c(NC2=NCC(CBr)S2)c1` (stereo not given) is inactive: 2.73%; for `Cc1ccc(OP(=O)(Nc2nccs2)Oc2ccc(C)cc2)cc1` it is inactive: 1.66%.
The figure for `COc1ccccc1OP(=O)(Nc1ccc(C)cn1)Oc1ccccc1OC` is inactive: 2.05%.
As for `Cc1ccc(N/C(=N/P(=O)(N2CCOCC2)N2CCOCC2)N2CCOCC2)cc1`, the figure is inactive: -0.23%.
Consider `CN(C(=O)Cc1ccc(Cl)c(Cl)c1)[C@H]1CCCC[C@H]1N1CCCC1`, for which the inhibition is inactive: 0.73%.
With `NC(=O)c1cc([N+](=O)[O-])cc([N+](=O)[O-])c1N`, the inhibition is inactive: 2.26%.
Turning to `O=[N+]([O-])c1cc(Oc2ccc([N+](=O)[O-])cc2C(F)(F)F)cc([N+](=O)[O-])c1`, the inhibition was inactive: 1.17%.
As to `COc1ccc(N/C(=N/P(=O)(N2CCOCC2)N2CCOCC2)N2CCOCC2)cc1`, the inhibition was inactive: 2.32%.
The figure for `O=P1(N(CCCl)CCCl)Nc2ccccc2N1` is inactive: 2.62%; for `O=P1(N(CCCl)CCCl)OCCCN1CCCl` (stereo not given) it is inactive: -1%.
`COc1cc(I)ccc1[As](=O)(O)O`: the inhibition is inactive: -0.66%.
The figure for `COc1ccc2nc(NP(=O)(c3ccccc3)c3ccccc3)sc2c1` is inactive: 0.17%; for `Cc1c2c(nc3ccccc13)SC(C(Cl)Cl)C2` (stereo not given) it is inactive: 0.56%; for `Cc1cc(=O)[nH]c(N[N+](=O)[O-])n1` it is inactive: -0.1%.
For the compound `O=C(OC1CN2CCC1CC2)C12CC3CC(CC(C3)C1)C2` (stereo not given), the inhibition was inactive: 0.7%.
As for `CC(C)NC(=O)NP(=O)(Oc1ccccc1)Oc1ccccc1`, the figure is inactive: 1.97%; as for `CCN(CC)C(=S)SC(NC=O)C(Cl)(Cl)Cl` (stereo not given), inactive: -0.58%; as for `O=C(OC1CN2CCC1CC2)c1cccc2[nH]cnc12` (stereo not given), inactive: 0.23%.
As for `ClCCSc1nnc(-c2cccnc2)o1`, the figure is inactive: -1.15%; as for `COC(=O)C1(C)COP(=O)(N2CCCCCC2)OC1` (stereo not given), inactive: -0.04%; as for `CC(C)c1ccc(OP(=O)(Nc2ccccn2)Oc2ccccc2F)cc1` (stereo not given), inactive: 0.78%.
As for `[N-]=[N+]=NC1CCCCC1NC(=O)c1cc([N+](=O)[O-])cc([N+](=O)[O-])c1` (stereo not given), the figure is inactive: 1.1%; as for `Cc1ccc(OP(=O)(Nc2ccc([N+](=O)[O-])cn2)Oc2ccc(C)cc2)cc1`, inactive: -0.66%; as for `Cc1ccc2nc3c(c(C)c2c1)CC(C(Cl)Cl)S3` (stereo not given), inactive: 1.62%.
As for `O=[N+]([O-])c1ccc(-c2cc([N+](=O)[O-])c(O)c([N+](=O)[O-])c2)cc1`, the inhibition was inactive: 3.61%.
As for `COc1cc(C(=O)NCC2(N3CCOCC3)CCCCC2)ccc1OCC(C)C`, the figure is inactive: -0.19%.
As to `O=[As](O)(c1ccc(O)cc1)c1ccccc1O`, the inhibition was inactive: 0.08%.
Take `C[As](=O)(O)c1cccc(C(=O)O)c1`: the inhibition was inactive: 0.1%.
As for `O=P(Nc1ccccn1)(c1cccc2ccccc12)c1cccc2ccccc12`, the figure is inactive: 1.89%; as for `Cc1cc(SC(NC=O)C(Cl)(Cl)Cl)ncn1` (stereo not given), inactive: -0.46%; as for `O=[N+]([O-])c1ccc(Nc2ccc(Oc3ccc([N+](=O)[O-])cc3[N+](=O)[O-])cc2)c([N+](=O)[O-])c1`, inactive: -0.2%.
As for `CCOC(=O)Nc1cccc([As](=O)(O)O)c1`, the figure is inactive: -0.75%.
As for `COP(=O)(OC)N1CC1c1ccccc1` (stereo not given), the figure is inactive: -1.3%; as for `Cc1cc(SC(NC(=O)c2ccccc2)C(Cl)(Cl)Cl)nc(C(C)C)n1` (stereo not given), inactive: 0.33%; as for `CCCCOc1ccc(C(=O)NCC2(N3CCCCC3)CCCCC2)cc1OC`, inactive: -0.83%.
Consider `CCOC(=O)Nc1ccc([As](=O)(O)O)c(O)c1`, for which the inhibition was inactive: -0.97%.
As to `O=C(O)C(O)c1ccc(N(CCCl)CCCl)cc1` (stereo not given), the inhibition was inactive: 0.85%.
The figure for `CC1CCNP(=O)(N(CCCl)CCCl)O1` (stereo not given) is inactive: 1.52%; for `CCC(C)N(CC(C)C)C(=S)SC(NC(C)=O)C(Cl)(Cl)Cl` (stereo not given) it is inactive: -1.24%; for `O=C(OC1CN2CCC1CC2)c1cccc([N+](=O)[O-])c1` (stereo not given) it is inactive: 1.52%.
In the case of `CCOC(=O)c1ccc(NC(=O)C(C)(CCl)SC)cc1` (stereo not given), the inhibition is inactive: 0.65%.
The figure for `O=C(O)C(=O)c1ccc(N(CCCl)CCCl)cc1` is inactive: 2.06%.
Consider `O=C(Nc1ccncc1[N+](=O)[O-])c1ccc([N+](=O)[O-])cc1[N+](=O)[O-]`, for which the inhibition is inactive: 1.13%.
Take `O=C(COc1ccccc1)OC1CN2CCC1CC2` (stereo not given): the inhibition was inactive: -0.48%.
As for `COC(=O)C1(C)COP(=O)(N2CCCC2)OC1` (stereo not given), the figure is inactive: -0.55%; as for `COP1(=S)c2c(C)nn(CCC#N)c2N=C(c2ccc(F)cc2)N1C` (stereo not given), inactive: -0.21%; as for `CN(C(=O)Cc1ccc(Cl)c(Cl)c1)C1CCCC[C@@H]1N1CCCC1` (stereo not given in full), inactive: -1.55%.
As for `CC(C)/C=N\N=C(\N)N[N+](=O)[O-]`, the figure is inactive: 0.32%; as for `CN(C(=O)Cc1ccc(Cl)c(Cl)c1)[C@@H]1CCCC[C@H]1N1CCCC1`, inactive: 1.89%.
As for `CC1(CBr)Cn2c(nc3ccccc3c2=O)S1` (stereo not given), the figure is inactive: 1%; as for `COc1ccccc1CNC(=O)COC(=O)C(O)(c1ccccc1)c1ccccc1`, inactive: -0.78%; as for `CC(C)(C)C(=O)NC(Sc1ncccn1)C(Cl)(Cl)Cl` (stereo not given), inactive: 1.17%.
For `O=P1(N(CCCl)CCCl)NCCC(C(F)(F)F)O1` (stereo not given), the inhibition is inactive: -0.18%.
The figure for `Clc1n[nH]nc1-c1nn[nH][15n]1` is inactive: -1.21%.
As for `CCOP(=O)(NC(=NC(C)c1ccccc1)NC(C)c1ccccc1)OCC` (stereo not given), the figure is inactive: -0.36%; as for `O=P1(Nc2ccccn2)COc2ccccc2OC1`, inactive: 0.38%; as for `CCC1=CC2Cc3nc4ccc(Cl)cc4c(N)c3C(C1)C2` (stereo not given), inactive: 1.01%.
Take `CCOP(=O)(Nc1ccc(C)cn1)OCC`: the inhibition is inactive: -0.97%.
With `CN(CCCl)Cc1cc(Cl)c(NC2=NCCN2)c(Cl)c1`, the inhibition is inactive: -0.46%.
The figure for `Nc1cccc([As](=O)(O)c2ccccc2)c1` is inactive: -0.74%; for `Cc1ccc(OCC(=O)OC2CN3CCC2CC3)cc1` (stereo not given) it is inactive: -1.52%; for `O=[As](O)(c1cccs1)c1cccs1` it is inactive: -0.1%.
The figure for `O=P1(Nc2ccc(Br)cn2)COc2ccccc2OC1` is inactive: -1.4%.
`NS(=O)(=O)c1cccc(NC(=O)COC(=O)C(O)(c2ccccc2)c2ccccc2)c1`: the inhibition was inactive: -0.04%.
The figure for `Cc1ccc(S(=O)(=O)N(CCCN)CCCc2c(C)nc(N)[nH]c2=O)cc1` is inactive: 3.76%; for `O=P1(Nc2ncccn2)COc2ccccc2OC1` it is inactive: 0.87%; for `CN(C)C1(CNC(=O)c2ccc(S(C)(=O)=O)cc2)CCCCC1` it is inactive: 0.76%.
As to `CCCC1OP(=O)(Nc2ccccc2)OCC1CC` (stereo not given), the inhibition is inactive: 0.4%.
As for `O=C(/C=C/c1ccccc1)OC1CN2CCC1CC2` (stereo not given), the figure is inactive: 0%; as for `CC1CCC(C(C)C)C(OP(=O)(Nc2ccccn2)c2ccccc2)C1` (stereo not given), inactive: -1.19%; as for `Cc1ccc(C(=O)OC2CN3CCC2CC3)cc1` (stereo not given), inactive: 0.1%.
As for `Cc1nn(-c2ccccc2)c2c1P(=O)(N1CCOCC1)N(C)C(c1ccccc1)=N2` (stereo not given), the figure is inactive: 0.32%; as for `CN(C(=O)Cc1ccccc1)[C@@H]1CC[C@]2(CCCO2)C[C@H]1N1CCCC1`, inactive: 0.13%.
As for `CCOP1(=S)c2c(C)nn(CCC#N)c2N=C(c2ccc(F)cc2)N1C` (stereo not given), the figure is inactive: -0.6%; as for `N#CCCN(C(=O)COC(=O)C(O)(c1ccccc1)c1ccccc1)c1ccc(F)cc1`, inactive: -0.95%; as for `CN(C(=O)Cc1ccc(Cl)c(Cl)c1)[C@H]1CC[C@@]2(CCCO2)C[C@@H]1N1CCCC1`, inactive: 0.34%.
With `O=[N+]([O-])c1ccc2c(c1)nnn2O`, the inhibition was inactive: 0.94%.
For the compound `CN(C)C(=O)c1cc([N+](=O)[O-])cc2c1-c1c(cc([N+](=O)[O-])cc1[N+](=O)[O-])C2=O`, the inhibition is active: 8.33%.
On to `NC(=O)Nc1ccc([As](=O)(O)O)cc1`, for which the inhibition is inactive: -0.85%.
The figure for `Nc1ccccc1[As](=O)(O)c1ccccc1` is inactive: 0%.
Turning to `O=C(O)COc1ccc([As](=O)(O)O)cc1[N+](=O)[O-]`, the inhibition is inactive: 0.97%.
As for `O=P(Nc1nccs1)(Oc1ccccc1)Oc1ccccc1`, the figure is inactive: -0.64%; as for `CCOP1(=S)c2c(C)nn(CCC#N)c2N=C(c2ccccc2F)N1C` (stereo not given), inactive: 0.04%.
As for `CCOP(=O)(Nc1cccc2ccccc12)OCC`, the inhibition is inactive: -0.54%.
As for `COc1cc(C2NCCC3(OCCO3)C2(C)C)cc(OC)c1OC` (stereo not given), the figure is inactive: -0.26%; as for `Cc1ccc(NCCc2c([N+](=O)[O-])cc([N+](=O)[O-])cc2[N+](=O)[O-])cc1`, inactive: 0.14%; as for `Nc1cccc2c([As](=O)(O)O)cccc12`, inactive: 0.86%.
Turning to `CCCOP(=S)(Nc1nc(N)cc(=O)[nH]1)OCCC`, the inhibition is inactive: 0.19%.
On to `Cc1cccc(OCC(=O)OC2CN3CCC2CC3)c1` (stereo not given), for which the inhibition was inactive: -0.05%.
The figure for `O=[As](O)(c1cccc(O)c1)c1cccc(O)c1` is inactive: 0.4%; for `O=C(OC1CN2CCC1CC2)c1ccc(Cl)cc1` (stereo not given) it is inactive: 0.35%; for `CS(=O)(=O)c1ccc(Cl)c(NC(=O)COC(=O)C(O)(c2ccccc2)c2ccccc2)c1` it is inactive: -1.31%.
The figure for `O=[As](O)(O)c1cccnc1` is inactive: -1.06%.
For the compound `COc1cc(C(=O)NCC2(N3CCOCC3)CCCCC2)cc(Cl)c1OC(C)C`, the inhibition is inactive: 1.5%.
